This is a selection; strong and weak results do not stand in their true shares. Some of these compounds have results that are not shown, active ones among them. Activity calls are given as the source filed them. The call rests on the fitted dose curve; in most records, active means well fitted inhibition curve with a large enough effect; inconclusive means small, poorly fitted or top-dose-only effect; inactive means no such curve, though single readings can be large or run the other way.

Protein sequences, listed by entry. Tags and fused reporters are not part of them.
UniProt P00811, whole entry: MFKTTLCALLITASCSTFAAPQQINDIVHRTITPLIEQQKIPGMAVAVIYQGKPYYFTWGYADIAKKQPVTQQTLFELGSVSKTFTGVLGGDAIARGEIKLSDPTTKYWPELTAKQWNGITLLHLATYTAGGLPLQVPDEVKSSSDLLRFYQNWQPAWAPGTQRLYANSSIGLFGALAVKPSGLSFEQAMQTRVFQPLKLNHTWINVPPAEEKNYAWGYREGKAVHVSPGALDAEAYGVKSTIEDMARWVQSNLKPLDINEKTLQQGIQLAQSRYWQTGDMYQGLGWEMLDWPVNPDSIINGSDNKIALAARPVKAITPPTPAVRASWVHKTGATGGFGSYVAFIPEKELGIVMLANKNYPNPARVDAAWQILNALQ

This assay has as its target Beta-lactamase (Escherichia coli (strain K12)) (UniProt P00811). Nature of the assay: qHTS Inhibitors of AmpC Beta-Lactamase (assay without detergent). Further: nearly all actives have a fitted effect of over 20% in size. The note with it: AmpC nitrocefin hydrolysis, absorbance 480 nm, 0.0001% Triton; at 57.1 µM (top of the series). As for the experimental part:
NIH Molecular Libraries Probe Production Network [MLPCN] NIH Chemical Genomics Center [NCGC] Assay Provider: Professor Brian Shoichet, UCSF Assay Overview: This aggregation profiling approach exploits the sensitivity of aggregate formation to detergent. Inhibition of b-lactamase is measured in the presence and absence of 0.01% Triton X-100. This particular assay had the prescence of 0.01% Triton X-100. See Pubchem assay "Promiscuous and Specific Inhibitors of AmpC Beta-Lactamase (assay without detergent)" for related screen. Compounds that inhibit only in the absence of detergent are considered likely promiscuous aggregators. A screen of 1,030 compounds was performed in Brian Shoichet's lab in 96-well format. AmpC activity was measured by following the absorbance at 480 nm. Nitrocefin is a chromogenic substrate: while nitrocefin is yellow (lmax 390 nm), the product of its hydrolysis is red (lmax 486 nm, 17,000 M-1). AmpC beta lactamase was provided by Shoichet Lab, UCSF.
Buffer: 20 mM phosphate buffer, pH 7.0 Triton X-100: No Detergent screen: 0.0001%, Detergent screen: 0.01%. Reagents/Controls: Buffer in columns 3 and 4 as negative control (no enzyme). 5.3 nM AmpC in columns 1, 2, 5-48. Titration of UCSF compound 9 control (from 10 mM, then 1:2) pin-transferred to column 2. Column 1 is neutral (100% activity). Assay Steps: Six uL of reagents were dispensed to 1536-well Greiner black clear bottom plates. Compounds and controls (23 nL) were transferred via Kalypsys PinTool. The plates were incubated for 15 min at room temperature, and then 2 uL of 800 uM solution of nitrocefin was added to start the reaction. The plates were immediately transferred to and read every 20 seconds for 4 min on ViewLux (Perkin-Elmer) High-throughput CCD imager using 480 nm absorbance protocol. During dispense, reagent bottles were kept submerged into 4 deg C water bath. Keywords: NIH Roadmap, MLSCN, MLI, MLSMR, qHTS, NCGC, AmpC Beta-Lactamase, Aggregation
Background: In qHTS, concentration-response curves come from the screen itself.
Turning to `CC(C)N1C(=O)CC2(CCN(CCOC(=O)C(O)(c3ccccc3)c3ccccc3)CC2)C1=O`, the activity change, negative = inhibition was inactive: 80.9%.

Turning to `CCN(CC)CC(C)C(C)OC(=O)C(O)(c1ccccc1)c1ccccc1` (centres undefined), the activity change, negative = inhibition is inactive: 4.44%.

On to `COc1cc(SC)ccc1C(=O)NCC1(N(C)C)CCCCC1`, for which the activity change, negative = inhibition is inactive: -4.39%.

As for `Cc1ccc(C(=O)NCC2(N3CCCCC3)CCCCC2)cc1`, the activity change, negative = inhibition is inactive: -20.4%.

Regarding `O=C(NCC1(N2CCCCC2)CCCCC1)c1cc([N+](=O)[O-])ccc1Cl`, the activity change, negative = inhibition was inactive: -38.5%.

For `CN1[C@@H]2CC[C@H]1CC(OC(=O)C(O)(c1ccccc1)c1ccccc1)C2` (some centres undefined), the activity change, negative = inhibition is inactive: 2.01%.

In the case of `C=CCN1CCN(CCOC(=O)C(O)(c2ccccc2)c2ccccc2)CC1`, the activity change, negative = inhibition was inactive: 2.18%.

Consider `O=C(NCC1(N2CCCCC2)CCCCC1)c1cc(F)c(F)cc1Cl`, for which the activity change, negative = inhibition was inactive: -11.3%.

In the case of `Cc1cc(C(=O)NCC2(N3CCCCC3)CCCCC2)ccc1[N+](=O)[O-]`, the activity change, negative = inhibition was inactive: -11.6%.

With `CCN1CCCC(OC(=O)C2(O)c3ccccc3C=Cc3ccccc32)C1` (centres undefined), the activity change, negative = inhibition was inactive: -14.4%.

Consider `O=C(NCC1(N2CCCCC2)CCCCC1)c1cccc(Br)c1`, for which the activity change, negative = inhibition is inactive: -24.7%.

For `COc1ccc(C(=O)NCC2(N(C)C)CCCCC2)cc1`, the activity change, negative = inhibition was inactive: 20.4%.

Consider `Cc1ccccc1C(=O)NCC1(N2CCCCC2)CCCCC1`, for which the activity change, negative = inhibition was inactive: -12.9%.

Regarding `CN(C)C1CCCC1OC(=O)C(O)(c1ccccc1)c1ccccc1` (centres undefined), the activity change, negative = inhibition is inactive: -3.55%.

In the case of `CN(C)c1ccc(C(=O)NCC2(N(C)C)CCCCC2)cc1`, the activity change, negative = inhibition was inactive: -11.2%.

`COc1cccc(C(=O)NCC2(N3CCCCC3)CCCCC2)c1`: the activity change, negative = inhibition is inactive: -12.6%.

`COc1ccc(Cl)cc1C(=O)NCC1(N(C)C)CCCCC1`: the activity change, negative = inhibition was inactive: 0.202%.

On to `O=C(NCC1(N2CCCCC2)CCCCC1)c1cccc(Cl)c1`, for which the activity change, negative = inhibition was inactive: -15.8%.

With `CN(C)C1(CNC(=O)c2ccc(Br)cc2)CCCCC1`, the activity change, negative = inhibition is inactive: -14.8%.

As to `COc1cc(C(=O)NCC2(N(C)C)CCCCC2)c([N+](=O)[O-])cc1OC`, the activity change, negative = inhibition was inactive: -7.44%.

As to `COc1ccc(Br)c(C(=O)NCC2(N3CCCCC3)CCCCC2)c1`, the activity change, negative = inhibition is inactive: 58.5%.

With `CN(C)c1cccc(C(=O)NCC2(N(C)C)CCCCC2)c1`, the activity change, negative = inhibition was inactive: -7.25%.

For `CC(C)Oc1ccc(C(=O)NCC2(N(C)C)CCCCC2)cc1`, the activity change, negative = inhibition is inactive: -1.34%.

Take `O=C(OC1CN2CCC1CC2)C(CO)(c1ccccc1)c1ccccc1` (centres undefined): the activity change, negative = inhibition is inactive: -23.1%.

(Values after PubChem BioAssay AID485341 (National Center for Advancing Translational Sciences (NCATS), 2010).)
